Experiment [1] has as its target T1, Vascular endothelial growth factor receptor 2 (Homo sapiens, UniProt P35968). The experiment is described as follows: Inhibition of human Vascular endothelial growth factor receptor 2.
Experiment [2] addresses Glycogen synthase kinase-3 (Homo sapiens) (UniProt P49840+P49841). The experiment is described as follows: Selectivity for Glycogen synthase kinase-3 by scintillation proximity assay. Format: protein assay. In general terms: SPA uses beads or plates that emit light when radiolabelled molecules are held near them.
Experiment [3] deals with Platelet-derived growth factor receptor beta (Homo sapiens) (UniProt P09619). Kind of experiment: Selectivity for Platelet-derived growth factor receptor beta by homologous time-resolved fluorescence assay.
In experiment [4] the target is Vascular endothelial growth factor receptor 1 (Homo sapiens) (UniProt P17948). The experiment is described as follows: Selectivity for Vascular endothelial growth factor receptor 1 by homologous time-resolved fluorescence assay.
Experiment [5] addresses T1, Vascular endothelial growth factor receptor 2. Kind of experiment: Selectivity for human Vascular endothelial growth factor receptor 2 by homologous time-resolved fluorescence assay.
For experiment [6], the target named is T2, Tyrosine-protein kinase ITK/TSK (Homo sapiens) (UniProt Q08881).
T2 sequence (whole entry): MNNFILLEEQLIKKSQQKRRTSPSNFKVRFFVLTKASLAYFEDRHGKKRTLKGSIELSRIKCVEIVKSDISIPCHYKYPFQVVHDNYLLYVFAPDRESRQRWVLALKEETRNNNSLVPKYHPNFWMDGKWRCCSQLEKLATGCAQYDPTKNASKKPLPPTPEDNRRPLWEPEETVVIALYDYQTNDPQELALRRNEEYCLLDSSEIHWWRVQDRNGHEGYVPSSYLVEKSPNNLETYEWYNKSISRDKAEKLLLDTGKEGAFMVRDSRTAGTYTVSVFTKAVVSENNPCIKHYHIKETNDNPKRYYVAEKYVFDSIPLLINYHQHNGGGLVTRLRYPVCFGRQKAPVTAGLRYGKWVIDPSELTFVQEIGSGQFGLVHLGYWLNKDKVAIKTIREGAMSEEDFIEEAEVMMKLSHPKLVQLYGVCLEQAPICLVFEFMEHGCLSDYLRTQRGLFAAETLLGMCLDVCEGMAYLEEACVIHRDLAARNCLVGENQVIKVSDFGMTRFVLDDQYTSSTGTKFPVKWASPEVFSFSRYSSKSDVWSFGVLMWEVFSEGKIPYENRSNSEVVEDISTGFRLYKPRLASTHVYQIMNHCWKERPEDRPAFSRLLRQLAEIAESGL
The experiment is described as follows: Selectivity for IL-2-inducible T-cell kinase by fluorescence polarization binding assay. (In general: Polarisation of emitted light reports the rotation of a fluorescent probe.)

Amino acid sequences for entries named in this document (tags omitted). A change or cut given only in a name is not applied to a line headed by its entry.
UniProt P49840: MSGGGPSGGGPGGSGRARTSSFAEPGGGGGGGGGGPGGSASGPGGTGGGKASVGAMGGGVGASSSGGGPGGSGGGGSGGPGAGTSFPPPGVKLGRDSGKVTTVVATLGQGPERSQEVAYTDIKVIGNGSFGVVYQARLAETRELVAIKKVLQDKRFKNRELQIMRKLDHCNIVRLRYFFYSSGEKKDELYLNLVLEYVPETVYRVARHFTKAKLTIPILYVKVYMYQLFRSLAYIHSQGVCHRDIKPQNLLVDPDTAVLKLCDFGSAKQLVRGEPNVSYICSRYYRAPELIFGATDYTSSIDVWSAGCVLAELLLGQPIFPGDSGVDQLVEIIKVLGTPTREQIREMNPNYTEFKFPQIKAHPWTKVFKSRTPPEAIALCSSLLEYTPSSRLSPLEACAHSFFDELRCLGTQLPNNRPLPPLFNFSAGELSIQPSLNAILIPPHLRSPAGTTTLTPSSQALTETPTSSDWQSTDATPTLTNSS
UniProt P09619, whole entry: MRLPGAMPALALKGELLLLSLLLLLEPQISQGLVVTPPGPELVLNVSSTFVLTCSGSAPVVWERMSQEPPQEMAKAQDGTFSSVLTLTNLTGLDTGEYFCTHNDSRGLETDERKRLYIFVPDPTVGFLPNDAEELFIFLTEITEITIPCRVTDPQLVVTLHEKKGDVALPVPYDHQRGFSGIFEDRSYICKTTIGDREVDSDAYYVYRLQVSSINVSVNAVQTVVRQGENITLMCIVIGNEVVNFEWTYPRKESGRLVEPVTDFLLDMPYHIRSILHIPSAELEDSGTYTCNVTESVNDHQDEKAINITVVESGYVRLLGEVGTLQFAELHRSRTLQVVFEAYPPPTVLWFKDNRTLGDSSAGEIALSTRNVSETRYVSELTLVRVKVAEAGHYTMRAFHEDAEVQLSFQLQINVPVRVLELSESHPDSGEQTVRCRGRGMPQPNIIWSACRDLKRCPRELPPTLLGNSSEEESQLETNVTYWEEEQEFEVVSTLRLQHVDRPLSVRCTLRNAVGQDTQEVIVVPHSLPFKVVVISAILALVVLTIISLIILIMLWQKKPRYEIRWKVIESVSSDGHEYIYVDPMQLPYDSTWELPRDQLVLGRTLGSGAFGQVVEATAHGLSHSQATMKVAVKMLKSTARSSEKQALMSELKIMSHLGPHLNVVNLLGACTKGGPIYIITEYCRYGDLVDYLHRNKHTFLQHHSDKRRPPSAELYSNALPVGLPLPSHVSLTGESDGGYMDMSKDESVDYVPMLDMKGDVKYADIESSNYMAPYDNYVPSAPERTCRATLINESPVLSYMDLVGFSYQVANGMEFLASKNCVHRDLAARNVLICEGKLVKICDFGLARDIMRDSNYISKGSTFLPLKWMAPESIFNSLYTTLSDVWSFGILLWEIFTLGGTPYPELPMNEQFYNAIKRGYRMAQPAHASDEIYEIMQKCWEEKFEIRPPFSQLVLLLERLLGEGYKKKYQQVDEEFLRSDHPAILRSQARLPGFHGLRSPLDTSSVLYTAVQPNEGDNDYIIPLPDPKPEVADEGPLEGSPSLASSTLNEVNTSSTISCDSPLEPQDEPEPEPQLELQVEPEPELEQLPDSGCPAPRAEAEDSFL
UniProt P17948, whole entry: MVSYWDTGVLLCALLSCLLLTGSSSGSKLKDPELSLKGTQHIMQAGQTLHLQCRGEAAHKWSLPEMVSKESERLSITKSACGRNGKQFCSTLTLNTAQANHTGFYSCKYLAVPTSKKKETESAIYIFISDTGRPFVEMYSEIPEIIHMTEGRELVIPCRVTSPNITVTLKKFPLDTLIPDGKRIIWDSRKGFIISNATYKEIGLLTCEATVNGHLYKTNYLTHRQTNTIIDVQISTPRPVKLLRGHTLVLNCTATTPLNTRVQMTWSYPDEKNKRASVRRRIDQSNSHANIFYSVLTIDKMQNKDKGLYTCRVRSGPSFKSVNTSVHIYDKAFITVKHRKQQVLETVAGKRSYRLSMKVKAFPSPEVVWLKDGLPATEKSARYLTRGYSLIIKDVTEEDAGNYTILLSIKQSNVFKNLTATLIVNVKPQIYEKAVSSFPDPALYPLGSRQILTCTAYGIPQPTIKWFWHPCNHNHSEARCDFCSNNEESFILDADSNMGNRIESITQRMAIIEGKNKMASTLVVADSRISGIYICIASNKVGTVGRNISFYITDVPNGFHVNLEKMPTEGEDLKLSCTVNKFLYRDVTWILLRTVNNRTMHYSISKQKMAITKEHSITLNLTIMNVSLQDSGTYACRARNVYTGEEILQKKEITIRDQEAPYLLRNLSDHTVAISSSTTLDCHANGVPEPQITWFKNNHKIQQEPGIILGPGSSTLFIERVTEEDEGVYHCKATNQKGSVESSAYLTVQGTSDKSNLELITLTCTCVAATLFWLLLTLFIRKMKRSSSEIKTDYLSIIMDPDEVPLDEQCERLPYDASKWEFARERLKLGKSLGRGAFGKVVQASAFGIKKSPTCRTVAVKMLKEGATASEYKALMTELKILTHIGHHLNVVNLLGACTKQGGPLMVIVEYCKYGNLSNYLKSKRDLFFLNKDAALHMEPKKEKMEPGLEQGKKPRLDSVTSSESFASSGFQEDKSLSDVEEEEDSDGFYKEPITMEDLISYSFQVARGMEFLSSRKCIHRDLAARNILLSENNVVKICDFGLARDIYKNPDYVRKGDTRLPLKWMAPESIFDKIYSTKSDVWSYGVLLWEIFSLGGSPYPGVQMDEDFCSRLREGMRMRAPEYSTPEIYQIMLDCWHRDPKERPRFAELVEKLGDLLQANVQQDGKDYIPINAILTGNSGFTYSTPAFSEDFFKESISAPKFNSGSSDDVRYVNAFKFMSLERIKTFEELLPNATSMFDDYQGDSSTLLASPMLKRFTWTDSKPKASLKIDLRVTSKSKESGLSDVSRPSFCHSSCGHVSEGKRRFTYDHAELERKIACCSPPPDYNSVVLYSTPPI
UniProt P11802: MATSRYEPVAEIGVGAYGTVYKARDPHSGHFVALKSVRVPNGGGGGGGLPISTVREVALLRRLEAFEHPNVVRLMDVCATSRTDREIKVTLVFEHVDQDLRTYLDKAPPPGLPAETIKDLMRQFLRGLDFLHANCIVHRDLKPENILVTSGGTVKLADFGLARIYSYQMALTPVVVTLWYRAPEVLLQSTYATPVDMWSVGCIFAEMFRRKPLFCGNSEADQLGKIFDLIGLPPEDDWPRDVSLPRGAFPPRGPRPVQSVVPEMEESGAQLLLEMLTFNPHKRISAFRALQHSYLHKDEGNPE
UniProt O15264: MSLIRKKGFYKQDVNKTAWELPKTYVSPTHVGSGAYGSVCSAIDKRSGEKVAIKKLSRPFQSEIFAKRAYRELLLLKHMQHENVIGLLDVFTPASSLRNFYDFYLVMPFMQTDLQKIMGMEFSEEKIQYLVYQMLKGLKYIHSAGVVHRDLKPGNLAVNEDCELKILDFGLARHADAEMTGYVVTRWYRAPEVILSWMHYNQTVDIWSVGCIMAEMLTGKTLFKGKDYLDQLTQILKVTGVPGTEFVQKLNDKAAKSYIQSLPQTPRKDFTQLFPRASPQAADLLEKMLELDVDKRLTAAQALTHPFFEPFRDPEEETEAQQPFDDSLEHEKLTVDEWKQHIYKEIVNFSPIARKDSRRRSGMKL
UniProt Q15759, whole entry, looked up: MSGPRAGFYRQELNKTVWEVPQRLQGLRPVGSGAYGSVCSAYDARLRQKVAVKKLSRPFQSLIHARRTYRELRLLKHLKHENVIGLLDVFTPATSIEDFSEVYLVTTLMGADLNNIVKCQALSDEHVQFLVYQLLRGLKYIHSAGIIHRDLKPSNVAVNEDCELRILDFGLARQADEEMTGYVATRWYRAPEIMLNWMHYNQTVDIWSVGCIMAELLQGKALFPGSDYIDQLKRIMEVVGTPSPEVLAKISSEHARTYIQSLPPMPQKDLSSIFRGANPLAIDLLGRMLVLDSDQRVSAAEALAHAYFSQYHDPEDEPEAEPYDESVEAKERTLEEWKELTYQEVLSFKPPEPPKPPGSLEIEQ
UniProt P53778: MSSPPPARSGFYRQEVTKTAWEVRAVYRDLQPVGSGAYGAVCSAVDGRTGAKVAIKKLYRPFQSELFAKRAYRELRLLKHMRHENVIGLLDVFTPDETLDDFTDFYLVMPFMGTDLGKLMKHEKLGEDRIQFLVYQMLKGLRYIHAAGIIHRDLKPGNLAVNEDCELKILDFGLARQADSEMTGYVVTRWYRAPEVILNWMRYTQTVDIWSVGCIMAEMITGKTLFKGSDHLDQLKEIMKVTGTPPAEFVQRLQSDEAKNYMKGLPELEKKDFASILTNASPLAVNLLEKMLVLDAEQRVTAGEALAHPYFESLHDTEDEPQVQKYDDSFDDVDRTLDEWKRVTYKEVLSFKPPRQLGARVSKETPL
UniProt P07333, whole entry: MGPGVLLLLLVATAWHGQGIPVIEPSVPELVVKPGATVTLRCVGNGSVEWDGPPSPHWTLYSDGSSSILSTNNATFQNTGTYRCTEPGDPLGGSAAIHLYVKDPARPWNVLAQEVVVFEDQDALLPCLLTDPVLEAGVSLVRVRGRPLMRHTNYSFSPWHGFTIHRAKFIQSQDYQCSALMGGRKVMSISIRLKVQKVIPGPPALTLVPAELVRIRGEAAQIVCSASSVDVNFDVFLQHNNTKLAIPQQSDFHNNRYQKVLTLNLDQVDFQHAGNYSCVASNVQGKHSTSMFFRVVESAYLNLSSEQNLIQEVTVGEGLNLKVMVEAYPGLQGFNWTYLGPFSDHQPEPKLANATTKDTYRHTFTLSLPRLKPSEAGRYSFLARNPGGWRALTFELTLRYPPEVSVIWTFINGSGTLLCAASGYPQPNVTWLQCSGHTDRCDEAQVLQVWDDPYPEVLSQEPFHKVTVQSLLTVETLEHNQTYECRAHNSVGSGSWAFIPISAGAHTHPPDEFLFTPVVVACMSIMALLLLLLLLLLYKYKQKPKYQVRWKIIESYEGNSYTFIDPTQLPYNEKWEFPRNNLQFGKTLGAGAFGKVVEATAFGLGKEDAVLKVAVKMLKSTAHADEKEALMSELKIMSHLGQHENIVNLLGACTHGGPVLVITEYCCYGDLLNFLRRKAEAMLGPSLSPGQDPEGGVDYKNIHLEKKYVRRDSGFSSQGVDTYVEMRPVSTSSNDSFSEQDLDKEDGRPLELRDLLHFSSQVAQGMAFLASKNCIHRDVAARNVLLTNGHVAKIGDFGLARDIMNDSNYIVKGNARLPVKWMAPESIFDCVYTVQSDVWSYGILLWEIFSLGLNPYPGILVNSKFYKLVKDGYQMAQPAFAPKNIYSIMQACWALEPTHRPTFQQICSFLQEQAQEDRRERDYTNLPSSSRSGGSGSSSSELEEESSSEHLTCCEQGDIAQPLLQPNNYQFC
UniProt Q02763: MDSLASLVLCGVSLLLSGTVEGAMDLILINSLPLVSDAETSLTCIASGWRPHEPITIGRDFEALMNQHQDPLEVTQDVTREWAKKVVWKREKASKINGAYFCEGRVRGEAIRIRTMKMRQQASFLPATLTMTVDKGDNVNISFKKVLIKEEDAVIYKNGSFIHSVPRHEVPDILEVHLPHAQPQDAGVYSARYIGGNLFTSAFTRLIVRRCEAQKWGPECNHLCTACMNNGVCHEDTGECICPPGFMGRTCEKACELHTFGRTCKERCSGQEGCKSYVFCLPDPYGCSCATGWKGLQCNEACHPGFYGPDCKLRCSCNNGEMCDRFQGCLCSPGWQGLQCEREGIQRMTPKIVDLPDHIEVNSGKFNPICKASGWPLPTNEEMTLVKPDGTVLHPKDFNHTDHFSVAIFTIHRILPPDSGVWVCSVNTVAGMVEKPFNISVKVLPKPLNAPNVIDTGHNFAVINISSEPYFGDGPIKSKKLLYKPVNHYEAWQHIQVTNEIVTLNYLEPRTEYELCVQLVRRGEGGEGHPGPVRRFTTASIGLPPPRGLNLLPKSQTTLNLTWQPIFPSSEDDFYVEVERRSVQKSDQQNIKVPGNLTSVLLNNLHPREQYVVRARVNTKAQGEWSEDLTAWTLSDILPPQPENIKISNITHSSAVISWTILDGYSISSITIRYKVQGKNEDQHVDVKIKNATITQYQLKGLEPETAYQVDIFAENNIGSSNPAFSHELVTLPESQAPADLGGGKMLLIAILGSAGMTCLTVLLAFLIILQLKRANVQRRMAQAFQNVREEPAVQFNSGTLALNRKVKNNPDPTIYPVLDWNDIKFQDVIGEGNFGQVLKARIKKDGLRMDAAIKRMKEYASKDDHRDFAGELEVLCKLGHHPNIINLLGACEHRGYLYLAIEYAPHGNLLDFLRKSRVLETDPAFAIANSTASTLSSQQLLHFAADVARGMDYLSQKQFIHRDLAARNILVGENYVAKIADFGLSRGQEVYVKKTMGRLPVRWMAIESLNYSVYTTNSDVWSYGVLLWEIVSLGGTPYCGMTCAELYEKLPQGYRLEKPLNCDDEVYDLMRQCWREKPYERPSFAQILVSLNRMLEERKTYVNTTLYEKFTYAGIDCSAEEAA

The target in experiment [7] is Cyclin-dependent kinase 4 (Homo sapiens) (UniProt P11802). The experiment is described as follows: Selectivity for Cyclin-dependent kinase 4 by plate capture and filtration binding assay.
In experiment [8] the target is Proto-oncogene tyrosine-protein kinase Src (Homo sapiens) (UniProt P12931). Kind of experiment: Selectivity for Src protein tyrosine kinase by homologous time-resolved fluorescence assay.
Experiment [9] has as its target MAP kinase p38 (Homo sapiens) (UniProt O15264+Q15759+Q16539+P53778). Kind of experiment: Selectivity for Mitogen-activated protein kinase p38 by fluorescence polarization binding assay.
The target of experiment [10] is Macrophage colony-stimulating factor 1 receptor (Homo sapiens) (UniProt P07333). Kind of experiment: Selectivity for colony stimulating factor 1 receptor by plate capture and filtration binding assay.
Experiment [11] addresses Angiopoietin-1 receptor (Homo sapiens) (UniProt Q02763). Kind of experiment: Selectivity for Tyrosine protein kinase receptor TIE-2 by homologous time-resolved fluorescence assay.

Experimental findings from ChEMBL document CHEMBL1142709, “Discovery and evaluation of 2-anilino-5-aryloxazoles as a novel class of VEGFR2 kinase inhibitors” (J Med Chem, 2005) are described below.

Molecules are shown by their SMILES.

For `CCS(=O)(=O)c1ccc(OC)c(Nc2ncc(-c3ccccc3)o2)c1`, the IC50 (usually the point on the concentration scale where inhibition reaches its midpoint) in [1] stood at 50 nM. This lies in the double-digit nanomolar range.

`CCS(=O)(=O)c1ccc(OC)c(Nc2ncc(-c3cccc(-c4cccnc4)c3)o2)c1` came in with an IC50 in [1] of 76 nM. Against the preceding molecule, the IC50 is about 1.5-fold higher.

As to `CCS(=O)(=O)c1ccc(OC)c(Nc2ncc(-c3cccc(-c4ccccc4Cl)c3)o2)c1`, in experiment [1], 39 nM corresponded to half-maximal inhibition (IC50). Moreover, the Selectivity is more than 10 µM in experiment [2]; 0.93 µM in experiment [3]; 0.11 µM in [4]; 0.39 µM in [5]; 0.12 µM in [6]; more than 10 µM in [7]. Moreover, the Selectivity in experiment [8] is 0.29 µM; in [9], more than 10 µM; in experiment [10], 1.9 µM; in experiment [11], 1.8 µM.

`OCc1cccc(Nc2ncc(-c3ccccc3)o2)c1`: inhibition in experiment [1] was half-maximal at 500 nM (IC50).

In turn, `CCS(=O)(=O)c1ccc(OC)c(Nc2ncc(-c3cccc(-c4cccs4)c3)o2)c1` registered an IC50 in [1] of 16 nM.

Molecule `CCS(=O)(=O)c1ccc(OC)c(Nc2ncc(-c3cccc(-c4cncn4C)c3)o2)c1` had an IC50 in [1] of 25 nM.

In experiment [1], `CCS(=O)(=O)c1ccc(OC)c(Nc2ncc(-c3ccc(C(N)=O)cc3)o2)c1` returned an IC50 of 18 nM.

In turn, `CCS(=O)(=O)c1ccc(OC)c(Nc2ncc(-c3cccc(OC)c3)o2)c1` [GW580509X] gave an IC50 in experiment [1] of 360 nM. This IC50 is about 20-fold higher than that of the molecule before.

With `NS(=O)(=O)c1ccc(Nc2ncc(-c3ccccc3)o2)cc1` [GW572399X], the IC50 in experiment [1] is 500 nM.

`CCS(=O)(=O)c1ccc(OC)c(Nc2ncc(-c3cccc(-c4ccccc4)c3)o2)c1`: the half-maximal inhibitory concentration (IC50) in experiment [1] was determined as 79 nM.

The molecule `CCS(=O)(=O)c1ccc(OC)c(Nc2ncc(-c3cccc(C(C)=O)c3)o2)c1` [GW621431X] gave an IC50 in [1] of 91 nM.

Regarding `CCS(=O)(=O)c1ccc(OC)c(Nc2ncc(-c3ccccc3Cl)o2)c1` [GW622055X], half-maximal inhibition in experiment [1] (IC50) required 360 nM.

The molecule `CCS(=O)(=O)c1ccc(OC)c(Nc2ncc(-c3ccc(C#N)cc3)o2)c1` had an IC50 in experiment [1] of 51 nM.

In [1], `CCS(=O)(=O)c1ccc(OC)c(Nc2ncc(-c3ccc(Cl)cc3)o2)c1` yielded an IC50 of 81 nM.

In experiment [1], `CCS(=O)(=O)c1ccc(OC)c(Nc2ncc(-c3cccc(F)c3)o2)c1` [GW621970X] yielded an IC50 of 93 nM.

Take `CCS(=O)(=O)c1ccc(OC)c(Nc2ncc(-c3cccc(-c4ccccn4)c3)o2)c1`: in experiment [1], the midpoint of inhibition, the IC50, lay at 22 nM.

On to `CCc1cccc(-c2cnc(Nc3cc(S(=O)(=O)CC)ccc3OC)o2)c1`, for which, in experiment [1], half-maximal inhibition (IC50) was put at 29 nM. The IC50 values of the last two molecules are within 1.5-fold of each other.

`CCS(=O)(=O)c1ccc(OC)c(Nc2ncc(-c3cccc(-c4ccsc4)c3)o2)c1`: the IC50 in [1] came out at 15 nM. Compared with the last molecule, the IC50 is about 1.9-fold lower.

`CCS(=O)(=O)c1ccc(OC)c(Nc2ncc(-c3cccc(C#N)c3)o2)c1`: in experiment [1], the IC50 was found to be 141 nM.

With `CCS(=O)(=O)c1ccc(OC)c(Nc2ncc(-c3cccc(Cl)c3)o2)c1`, the IC50 in experiment [1] was found to be 22 nM.

In turn, `CCS(=O)(=O)c1ccc(OC)c(Nc2ncc(-c3ccc(F)cc3)o2)c1` yielded an IC50 in experiment [1] of 79 nM.

With `CCS(=O)(=O)c1ccc(OC)c(Nc2ncc(-c3cccc(-c4ccccc4F)c3)o2)c1` [GW678313X], half-maximal inhibition in experiment [1] (IC50) was put at 89 nM.

`CCS(=O)(=O)c1cccc(Nc2ncc(-c3ccccc3)o2)c1` yielded an IC50 in experiment [1] of 720 nM.

For the molecule `CCS(=O)(=O)c1ccc(OC)c(Nc2ncc(-c3ccc(OC)cc3)o2)c1`, in experiment [1], the midpoint of inhibition, the IC50, lay at 87 nM.

Regarding `c1ccc(Oc2ccc(Nc3ncc(-c4ccccc4)o3)cc2)cc1`, the IC50 in [1] is more than 10000 nM.

`COc1ccccc1Nc1ncc(-c2ccccc2)o1.Cl` [GW577921A] gave an IC50 in experiment [1] of 380 nM. This counts as sub-micromolar.

As to `N#Cc1ccccc1Nc1ncc(-c2ccccc2)o1`, the IC50 in experiment [1] came out at 870 nM.

In experiment [1], `CCS(=O)(=O)c1ccc(OC)c(Nc2ncc(-c3cccc(-c4ccncc4)c3)o2)c1` displayed an IC50 of 78 nM.

As to `c1ccc(Oc2cccc(Nc3ncc(-c4ccccc4)o3)c2)cc1`, in experiment [1], half-maximal inhibition (IC50) required 1410 nM.
